Test results: article PMC3661904 (Neuropharmacology, 2012)

Chains of the proteins cited; added tags and fusions are not shown. Lines headed by an entry give the natural chain unless they say otherwise; changes in a name come on top. Residues count along the entry.
UniProt P32297, 32-505: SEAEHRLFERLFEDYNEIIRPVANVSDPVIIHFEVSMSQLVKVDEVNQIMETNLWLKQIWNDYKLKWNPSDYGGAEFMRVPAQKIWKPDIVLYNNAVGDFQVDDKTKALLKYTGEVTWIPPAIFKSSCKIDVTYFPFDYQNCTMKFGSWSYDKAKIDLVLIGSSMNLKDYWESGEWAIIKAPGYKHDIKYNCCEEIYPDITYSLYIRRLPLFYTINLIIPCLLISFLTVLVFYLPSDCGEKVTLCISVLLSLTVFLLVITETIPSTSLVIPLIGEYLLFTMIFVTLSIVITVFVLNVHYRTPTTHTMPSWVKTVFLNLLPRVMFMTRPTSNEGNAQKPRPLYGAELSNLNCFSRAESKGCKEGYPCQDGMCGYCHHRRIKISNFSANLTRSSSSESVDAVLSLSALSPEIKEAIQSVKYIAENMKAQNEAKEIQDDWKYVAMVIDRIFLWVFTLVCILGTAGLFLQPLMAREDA
UniProt P30532, 23-468: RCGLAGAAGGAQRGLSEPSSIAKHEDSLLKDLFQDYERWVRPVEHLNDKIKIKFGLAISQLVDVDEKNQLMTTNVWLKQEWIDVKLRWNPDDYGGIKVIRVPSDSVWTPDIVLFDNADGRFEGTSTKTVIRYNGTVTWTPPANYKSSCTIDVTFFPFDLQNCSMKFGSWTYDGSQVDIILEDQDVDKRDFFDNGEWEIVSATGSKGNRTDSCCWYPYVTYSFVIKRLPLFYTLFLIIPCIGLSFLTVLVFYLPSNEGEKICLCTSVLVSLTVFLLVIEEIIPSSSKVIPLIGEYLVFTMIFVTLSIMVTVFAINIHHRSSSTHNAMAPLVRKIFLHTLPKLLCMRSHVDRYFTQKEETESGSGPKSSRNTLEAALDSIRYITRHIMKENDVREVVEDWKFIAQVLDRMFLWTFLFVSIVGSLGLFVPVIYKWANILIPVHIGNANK
UniProt P30532, 23-468 D398N: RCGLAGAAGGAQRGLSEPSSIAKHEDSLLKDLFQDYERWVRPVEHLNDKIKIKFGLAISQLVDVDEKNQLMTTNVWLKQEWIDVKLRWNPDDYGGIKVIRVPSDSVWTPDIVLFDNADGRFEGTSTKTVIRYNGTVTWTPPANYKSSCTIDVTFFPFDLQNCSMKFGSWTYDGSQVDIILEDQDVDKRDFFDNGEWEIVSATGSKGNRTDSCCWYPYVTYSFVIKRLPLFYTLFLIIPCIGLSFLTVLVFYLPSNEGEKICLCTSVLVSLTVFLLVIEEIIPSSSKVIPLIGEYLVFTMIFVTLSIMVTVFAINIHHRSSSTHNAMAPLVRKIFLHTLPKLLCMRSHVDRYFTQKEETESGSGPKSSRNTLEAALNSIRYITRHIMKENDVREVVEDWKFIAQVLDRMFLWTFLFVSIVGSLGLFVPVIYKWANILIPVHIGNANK

Legend:
Test in all cases: aequorin intracellular calcium assay, inhibition of ACh response
Format in all cases: cell-based
[1] = biological target: human α3β4 nicotinic acetylcholine receptor (α3β4 nAChR) (Homo sapiens, UniProt P30926+P32297)
[2] = biological target: human α3β4α5D nAChR (D398 variant of α5; α3β4α5N carries N398) (Homo sapiens, UniProt P30532+P30926+P32297)
[3] = biological target: human α3β4α5D nAChR (D398 variant of α5; α3β4α5N carries N398) (Homo sapiens, UniProt P30532+P30926+P32297, P30532:D398N)

IC50 [1]: 1180 ± 170 nM
IC50 [2]: 620 ± 90 nM
IC50 [3]: 440 ± 90 nM
Compound: CNC1(C)C2CCC(C2)C1(C)C (stereo not drawn) [Mecamylamine]
